Measurements taken from patent US20240044881A1.

Biological target: Type II ClyA-CS nanopore (Salmonella typhi) (UniProt Q8Z727)
Test: single-channel current recording, planar lipid bilayer, -35 mV

Substance: human thrombin (from UniProt P00734 328-622) (enzyme)
- HT Occupancy of L2 at -35 mV, %: 96%
